The values that follow come from ChEMBL document CHEMBL1140398, “New dual inhibitors of EGFR and HER2 protein tyrosine kinases” (Bioorg Med Chem Lett, 2005).

The chains behind the UniProt entries cited, without tags or fusion partners.
UniProt P00533, whole entry: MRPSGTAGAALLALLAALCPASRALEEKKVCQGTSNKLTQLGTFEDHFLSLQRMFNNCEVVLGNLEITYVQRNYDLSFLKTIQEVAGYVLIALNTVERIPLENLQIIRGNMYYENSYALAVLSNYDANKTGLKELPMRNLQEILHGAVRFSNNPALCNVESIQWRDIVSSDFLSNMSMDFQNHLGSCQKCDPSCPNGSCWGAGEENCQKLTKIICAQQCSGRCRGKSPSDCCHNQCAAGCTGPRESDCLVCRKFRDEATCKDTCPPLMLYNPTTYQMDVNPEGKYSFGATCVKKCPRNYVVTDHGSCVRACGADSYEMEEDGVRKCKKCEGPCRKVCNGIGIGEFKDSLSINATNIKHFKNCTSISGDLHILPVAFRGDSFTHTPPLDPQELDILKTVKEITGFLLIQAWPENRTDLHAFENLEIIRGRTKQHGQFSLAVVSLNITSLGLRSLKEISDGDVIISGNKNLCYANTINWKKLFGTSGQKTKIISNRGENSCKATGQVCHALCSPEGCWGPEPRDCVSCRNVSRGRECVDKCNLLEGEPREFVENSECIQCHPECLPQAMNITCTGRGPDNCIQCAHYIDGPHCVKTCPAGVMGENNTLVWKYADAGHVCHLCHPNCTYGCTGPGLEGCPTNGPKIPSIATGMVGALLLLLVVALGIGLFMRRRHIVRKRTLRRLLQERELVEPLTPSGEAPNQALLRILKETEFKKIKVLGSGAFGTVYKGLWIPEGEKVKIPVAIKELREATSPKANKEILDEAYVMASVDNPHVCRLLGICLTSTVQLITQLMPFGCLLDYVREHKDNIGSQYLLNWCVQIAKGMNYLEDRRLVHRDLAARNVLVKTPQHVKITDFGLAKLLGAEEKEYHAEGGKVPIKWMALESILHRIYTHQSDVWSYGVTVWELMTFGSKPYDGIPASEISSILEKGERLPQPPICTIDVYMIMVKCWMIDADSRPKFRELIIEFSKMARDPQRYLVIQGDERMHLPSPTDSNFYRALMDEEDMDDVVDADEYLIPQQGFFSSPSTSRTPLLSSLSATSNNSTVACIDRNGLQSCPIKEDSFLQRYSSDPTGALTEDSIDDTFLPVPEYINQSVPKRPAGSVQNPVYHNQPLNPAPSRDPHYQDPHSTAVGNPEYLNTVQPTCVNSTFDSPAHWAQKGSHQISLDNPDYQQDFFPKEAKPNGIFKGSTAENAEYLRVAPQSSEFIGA

The IC50 is the midpoint of a concentration-inhibition curve. Read a low IC50 as higher potency.

For the assay, the target named is Epidermal growth factor receptor (Homo sapiens, UniProt P00533). Kind of assay: In vitro inhibitory concentration against EGFR cytoplasmic sequence expressed in Sf9 cells.

Turning to `CCOC(=O)c1cn2ncnc(Nc3ccc4c(cnn4Cc4ccccc4)c3)c2c1C`, half-maximal inhibition (IC50) was put at 200 nM.
